Laboratory results taken from patent publication US20040176474A1 (priority 2003, published 2004).

Assay: UN Test 3(a)(i) Bureau of Explosives (BOE) impact machine drop-weight test
Conditions: 3.63 kg weight dropped from 25.4 cm, ten trials; failure = at least one decomposition

## C#CCBr [neat propargyl bromide, 3-bromopropyne]
  BOE impact test result (pass/fail): failed
